Measurements reported in patent US20040248990A1, “Ketone peroxide compositions” (priority 2002, published 2004).
Only a part of the results on these compounds is given; other tests are left out.

Assay: Solubility of Type 4 ketone peroxides in different solvents (Table I)
Conditions: at 20° C.

CCCCCC(C)(OO)OO
Solubility in isodecane (apolar isododecane): >45 g/100 g
Solubility in dimethyl-phthalate (polar dimethylphthalate): >30 g/100 g
